Literature values as cited in paper PMC10552749, “Anti-methicillin-resistant Staphylococcus aureus and antibiofilm activity of new peptides produced by a Brevibacillus strain” (PeerJ, 2023).

Conditions: ref Baczek, Walijewski & Kaliszan, 2008, cited from earlier work
Text: In the present study, five anti-MRSA peptides were separated from SPR19 by RPC. P1 was first eluted from the column because it had the lowest hydrophobicity and high polarity because of four negatively charged amino acids (glutamate). This was supported by a previous study that determined the peptide retention in RPC when using acetonitrile as an eluting solution and trifluoroacetic acid (TFA) as an ion-pairing agent. They used the synthesized peptides with close molecular weight but different hydrophobicity as the model peptides. The uniform distribution of peptide peaks in the chromatogram w ...

DAEFRHDSGY-NH2 [literature model peptide for RPC retention]
RPC retention time (isocratic elution by 0.1% TFA and ACN): 7.24 min
pI: 4.54
